The target of assay [1] is σ1 receptor. The conditions noted are these: Figure 1 reference compounds and fluorescent ligands; cited from earlier work.
The target of assay [2] is T1, σ1 receptor (Cavia porcellus, UniProt Q60492).
T1 construct: from tissue; host or cells: guinea pig brain without cerebellum (male Dunkin guinea pigs, Envigo)
Nature of the assay: σ1 receptor radioligand binding assay with (+)-[3H]pentazocine, guinea pig brain membranes. The conditions noted are these: guinea pig brain membranes without cerebellum. On the procedure: All of the procedures for the binding assays were previously described. σ1 and σ2 receptor binding assays were carried out according to the literature.[25] […] Incubations were stopped by addition of 1 mL of ice-cold buffer [50 mM TRIS (pH 8.0)], and then the suspension was filtered through GF/B presoaked in 0.3% polyethylenimine (PEI) for at least 60 min prior to use. The filters were washed twice with 1 mL of ice-cold buffer. […] Incubations were stopped by addition of 1 mL of ice-cold buffer [50 mM TRIS (pH 8.0)], and then the suspension was filtered through GF/B presoaked in 0.5% polyethylenimine (PEI) for at least 60 min prior to use. The filters were washed twice with 1 mL of ice-cold buffer. […] Scatchard parameters (Kd and Bmax) and apparent inhibition constants (Ki) were determined by nonlinear curve fitting using GraphPad Prism (version 5.0).[64]

Amino acid sequences for entries named in this document (tags omitted).
UniProt Q60492, whole entry: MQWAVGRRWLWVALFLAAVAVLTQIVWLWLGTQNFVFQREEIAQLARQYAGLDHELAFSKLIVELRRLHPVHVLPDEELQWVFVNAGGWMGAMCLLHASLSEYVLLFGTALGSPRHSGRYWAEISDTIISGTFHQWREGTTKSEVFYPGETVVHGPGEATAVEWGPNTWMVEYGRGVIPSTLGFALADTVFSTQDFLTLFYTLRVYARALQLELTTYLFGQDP

Assay [3] deals with σ2 receptor. The conditions noted are these: Figure 1 reference compounds and fluorescent ligands; cited from earlier work.

Results on three molecules are retold here after article PMC10041534, “Development of Fluorescent 4-[4-(3H-Spiro[isobenzofuran-1,4′-piperidin]-1′-yl)butyl]indolyl Derivatives as High-Affinity Probes to Enable the Study of σ Receptors via Fluorescence-Based Techniques” (Journal of Medicinal Chemistry, 2023).

SMILES strings stand for the structures.

A word on the Ki: it is the dissociation constant of the complex between target and ligand, obtained from inhibition or displacement.

As to `Fc1ccc(-n2cc(CCCCN3CCC4(CC3)OCc3ccccc34)c3ccccc32)cc1` [siramesine], in assay [1], the Ki is 10.5 nM. `CC(C)=CCN1CC[C@]2(C)c3cc(O)ccc3C[C@H]1[C@H]2C` [(+)-[^3H]pentazocine, reference compound]: in assay [2], the Bmax is given as 500 fmol/mg of protein.

On to `COc1cccc2c1CCCC2CCCN1CCN(C2CCCCC2)CC1` (stereo not drawn) [PB28, 1-cyclohexyl-4-[3-(5-methoxy-1,2,3,4-tetrahydronaphthalen-1-yl)propyl]piperazine], for which the Ki in assay [3] was 0.68 nM.
